Source: paper PMC10461232, “Structure-Based Design of Transport-Specific Multitargeted One-Carbon Metabolism Inhibitors in Cytosol and Mitochondria” (Journal of Medicinal Chemistry, 2023)

Chains of the proteins cited; added tags and fusions are not shown. Lines headed by an entry give the natural chain unless they say otherwise; changes in a name come on top.
UniProt P31939: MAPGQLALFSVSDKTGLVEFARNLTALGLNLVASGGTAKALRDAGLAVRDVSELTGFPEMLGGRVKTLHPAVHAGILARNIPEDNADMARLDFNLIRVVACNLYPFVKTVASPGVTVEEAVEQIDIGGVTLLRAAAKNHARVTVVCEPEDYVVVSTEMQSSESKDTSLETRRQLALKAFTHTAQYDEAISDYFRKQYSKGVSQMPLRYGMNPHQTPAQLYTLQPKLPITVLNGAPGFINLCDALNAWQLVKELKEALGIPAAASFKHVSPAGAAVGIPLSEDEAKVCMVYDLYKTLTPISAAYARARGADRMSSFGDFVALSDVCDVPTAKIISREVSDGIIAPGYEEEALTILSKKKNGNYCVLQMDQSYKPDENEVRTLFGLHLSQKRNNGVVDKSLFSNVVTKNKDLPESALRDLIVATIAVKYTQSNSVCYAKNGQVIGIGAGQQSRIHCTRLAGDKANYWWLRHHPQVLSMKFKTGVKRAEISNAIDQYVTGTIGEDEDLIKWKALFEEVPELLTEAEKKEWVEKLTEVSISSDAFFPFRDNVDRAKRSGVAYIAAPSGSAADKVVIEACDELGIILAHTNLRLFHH

Target: T1, human ATIC (Homo sapiens, UniProt P31939)
T1 construct: N-terminal His6-tagged full-length human ATIC; made in house; host or cells: E. coli Rosetta (DE3)pLysS
Assay: AICARFTase (ATIC) inhibition assay, Ki
Format: biochemical
Conditions: purified His-ATIC, AICARFTase activity, 50 μM 10-formyl THF, 25 °C; mean (SD), at least 3 replicates

Work on `Nc1nc2[nH]cc(CCc3ccc(C(=O)N[C@@H](CCC(=O)O)C(=O)O)cc3)c2c(=O)[nH]1` [PMX, N-{4-[2-(2-amino-3,4-dihydro-4-oxo-7H-pyrrolo[2,3-d]pyrimidin-5-yl)ethyl]benzoyl}-L-glutamic acid, reference compound] yielded a Ki of 880 ± 560 nM.
